Measured values as given in publication PMC10072319 (Bioorganic & medicinal chemistry letters, 2023).

System: T. b. brucei Lister 427
Type: cell-based, Trypanosoma brucei brucei
Conditions: first pass screen at 4 μM

Compound: COc1ccc(/C=C/C(=O)CC(=O)/C=C/c2ccc(OC)cc2OC)c(OC)c1 [Compound 9]
- activity against T. b. brucei, in words: inactive
